The record followed here is patent US6403104B1, “Hapten-conjugated mammalian cells and methods of making and using thereof” (Thomas Jefferson University, priority 1999, dated 2002).

In this assay the test system is metastatic melanoma. The assay can be described thus: Immunotherapy of patients with metastatic melanoma, clinical and immunological response. The format is in vivo, human. The conditions noted are these: similar experiment in metastatic melanoma patients. As for the experimental part: Patients with metastatic melanoma can be treated using an immunotherapy regimen with the following components: 1) vaccine consisting of autologous tumor cells conjugated to DNP; and 2) low dose cyclophosphamide pretreatment. Patients are evaluated to determine whether tumor regression occurs, to monitor tumor inflammatory responses, and to measure delayed type hypersensitivity response to autologous melanoma cells, DNFB (the form of DNP used for skin sensitization), DNP-conjugated autologous lymphocytes, diluent (Hanks solution), purified protein derivative (PPD), and recall antigens (candida, trichophyton, and mumps). Patients who are considered to be deriving benefit (clinical or immunological) from the therapy are continued in the immunotherapy regimen. Subsequent vaccines may be given without cyclophosphamide.

Take “Interleukin 2 linked to polyethylene glycol: Interleukin 2 linked to polyethylene glycol, tried in a similar immunotherapy experiment”: the “effectiveness in immunotherapy regimen” value is “not be effective”.
